Measured values published in US20220186210A1, “METHOD FOR I[…]” (priority 2019, published 2022).

Tested on: HeLa cells with PLK1 point mutations
Experiment: Pooled ssODN point-mutation validation, BI2536 resistance (MTT viability)
Type: cell-based
Conditions: PLK1 point mutation at R136, F183 or C67, pooled assay; BI2536 10 ng/ml, 72 hour; FIG. 10D

CC[C@@H]1C(=O)N(C)c2cnc(Nc3ccc(C(=O)NC4CCN(C)CC4)cc3OC)nc2N1C1CCCC1 [BI2536]
cell susceptibility to BI2536: conferred BI2536 resistance
